Target: T1, cyclin D1 (endogenous and ectopic) of S24, S24/D1, S24/V and V3 cells (UniProt P25322)
T1 construct: also called endogenous and ectopic D1
Assay: GST pull-down on glutathione-Sepharose, anti-cyclin D1 immunoblot
Procedure: Cyclin D1 pull-down assays were performed as described previously (Chen et al., 1996, Cancer Res. 56:3168-3172 (Erratum, 56:4074)). Briefly, cells were lysed in binding buffer (20 mM Tris-HCl pH7.4, 1 mM EDTA, 25 mM NaCl, 10% glycerol, 0.01% Nonidet P-40, 1 mM each of DTT, Na3VO4 and PMSF, 2 μg/ml each of aprotinin, leupeptin, antipain, pepstatin A). 500 μg of the lysates were incubated with 15 μg of GST-SSeCKS2 or GST prebound to glutathione-Sepharose beads for 3 h at 40° C. on a rotating wheel. After 4 washes in binding buffer, the beads were boiled in protein loading dye, and the proteins analyzed by immunoblotting using anti-cyclin D1 antibody.
SSeCKS binds G1 phase cyclins in vitro via tandem CY motifs. A so-called cyclin-binding (CY) motif which facilitates the binding of cyclins to several cell cycle components such as p21 (Chen et al., 1996, Mol. Cell. Biol. 16:4673-4682). SSeCKS encodes two closely spaced potential CY motifs, KKLFSxxxxKKLSG (K/RK/R followed by two nonpolar residues, with the first usually Leu). This domain also contains two major in vivo PKC sites, Ser507 and Ser515 (Lin et al., 1996, J. Biol. Chem. 271:28430-28438; Chapline et al., 1996, J. Biol. Chem. 271:6417-6422). It was tested whether a GST fusion protein containing the SSeCKS CY motifs (“SSeCKS-2”) could bind G1 phase cyclins in an in vitro pulldown assay. […]

By UniProt entry, the sequences of proteins in these tests, tags left out.
UniProt P25322, whole entry: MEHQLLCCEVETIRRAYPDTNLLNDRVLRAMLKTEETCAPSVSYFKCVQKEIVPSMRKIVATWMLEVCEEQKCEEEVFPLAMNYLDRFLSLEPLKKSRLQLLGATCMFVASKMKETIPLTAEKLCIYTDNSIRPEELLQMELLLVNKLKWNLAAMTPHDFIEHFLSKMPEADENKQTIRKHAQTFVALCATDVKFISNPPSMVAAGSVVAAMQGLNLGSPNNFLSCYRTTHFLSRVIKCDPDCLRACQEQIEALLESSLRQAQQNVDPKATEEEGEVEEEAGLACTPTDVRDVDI

B1: GST protein alone (other, UniProt P08515 1-218, looked up)
chain: MSPILGYWKIKGLVQPTRLLLEYLEEKYEEHLYERDEGDKWRNKKFELGLEFPNLPYYIDGDVKLTQSMAIIRYIADKHNMLGGCPKERAEISMLEGAVLDIRYGVSRIAYSKDFETLKVDFLSKLPEMLKMFEDRLCHKTYLNGDHVTHPDFMLYDALDVVLYMDPMCLDAFPKLVCFKKRIEAIPQIDKYLKSSKYIAWPLQGWQATFGGGDHPPK
notes: Control protein; also called GST alone
  binding result: no binding (tested: 15 µg of GST per 500 µg of lysate)
